Results published in ChEMBL document CHEMBL1133639, “Subtype-selective N-methyl-D-aspartate receptor antagonists: synthesis and biological evaluation of 1-(heteroarylalkynyl)-4-benzylpiperidines” (J Med Chem, 2000).

By UniProt entry, the sequences of proteins in these tests, tags left out. Where a name states a change or a piece, a line headed by the entry shows the natural chain unless it says otherwise.
UniProt Q14957: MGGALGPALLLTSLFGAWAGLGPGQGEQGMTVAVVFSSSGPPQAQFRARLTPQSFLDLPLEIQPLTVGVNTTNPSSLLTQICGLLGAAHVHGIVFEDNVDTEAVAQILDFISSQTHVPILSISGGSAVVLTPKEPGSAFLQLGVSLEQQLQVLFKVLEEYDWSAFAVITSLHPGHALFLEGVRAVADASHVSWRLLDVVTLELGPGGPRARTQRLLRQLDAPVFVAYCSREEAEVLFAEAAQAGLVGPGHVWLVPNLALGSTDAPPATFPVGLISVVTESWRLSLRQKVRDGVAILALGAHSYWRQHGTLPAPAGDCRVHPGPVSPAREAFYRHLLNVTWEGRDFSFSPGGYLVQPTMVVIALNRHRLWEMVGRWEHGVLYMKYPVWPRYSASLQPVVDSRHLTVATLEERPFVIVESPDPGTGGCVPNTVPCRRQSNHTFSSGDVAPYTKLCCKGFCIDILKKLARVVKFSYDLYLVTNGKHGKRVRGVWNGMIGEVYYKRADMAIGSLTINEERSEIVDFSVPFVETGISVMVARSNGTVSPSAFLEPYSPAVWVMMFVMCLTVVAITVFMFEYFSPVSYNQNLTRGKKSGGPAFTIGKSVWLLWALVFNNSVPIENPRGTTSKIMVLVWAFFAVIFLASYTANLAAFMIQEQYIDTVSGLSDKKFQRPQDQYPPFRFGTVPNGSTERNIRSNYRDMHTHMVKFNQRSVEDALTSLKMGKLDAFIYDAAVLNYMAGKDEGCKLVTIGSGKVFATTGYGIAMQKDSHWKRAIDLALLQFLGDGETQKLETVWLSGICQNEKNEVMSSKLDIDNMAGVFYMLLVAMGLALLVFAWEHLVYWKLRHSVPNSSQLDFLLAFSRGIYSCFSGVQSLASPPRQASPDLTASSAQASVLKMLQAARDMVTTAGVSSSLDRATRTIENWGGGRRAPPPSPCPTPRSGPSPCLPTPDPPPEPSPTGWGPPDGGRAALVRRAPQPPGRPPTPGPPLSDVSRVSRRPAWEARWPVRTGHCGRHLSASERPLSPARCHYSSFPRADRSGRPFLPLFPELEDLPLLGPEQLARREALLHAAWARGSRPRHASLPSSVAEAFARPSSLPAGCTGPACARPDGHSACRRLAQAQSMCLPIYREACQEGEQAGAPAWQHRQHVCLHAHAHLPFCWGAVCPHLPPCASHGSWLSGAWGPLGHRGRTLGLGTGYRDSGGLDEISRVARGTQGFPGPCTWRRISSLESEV

Legend:
Type in all cases: cell-based, Oocyte
[1] = target: Glutamate receptor ionotropic, NMDA 1 (Homo sapiens, UniProt Q05586); assay: Concentration required for 50% Inhibition of responses at cloned NR1A/2AB NMDA expressed in Xenopus oocytes
[2] = target: Glutamate receptor ionotropic, NMDA 1 (Homo sapiens, UniProt Q05586+Q14957); assay: Concentration required for 50% Inhibition of responses at cloned NR1A/2C NMDA expressed in Xenopus oocytes
[3] = target: Glutamate receptor ionotropic, NMDA 1 (Homo sapiens, UniProt Q05586+Q12879); assay: Concentration required for 50% Inhibition of responses at cloned NR1A/2A NMDA expressed in Xenopus oocytes

- IC50 [1]: 0.0053 µM
- IC50 [2]: > 100 µM
- IC50 [3]: 35 µM
Structure (SMILES): O=c1[nH]c2ccc(C#CCN3CCC(Cc4ccccc4)CC3)cc2[nH]1
